Assay [1] can be described thus: Ratio of Kcat to Km for recombinant SPM-1 (unknown origin).
The nature of assay [2]: Ratio of Kcat to Km for recombinant Bc2 (unknown origin).
The nature of assay [3]: Ratio of Kcat to Km for recombinant VIM-2 (unknown origin).
A short description of assay [4]: Ratio of Kcat to Km for recombinant NDM-1 (unknown origin).
The nature of assay [5]: Ratio of Kcat to Km for recombinant IMP-1 (unknown origin).

One may read the kcat/Km as the turnover number divided by the Michaelis constant. Take `O=C(Cc1ccccc1)N[C@@H]1C(=O)N2C(C(=O)O)=C(COc3ccc4ccc(=O)oc4c3)CS(=O)(=O)[C@H]12`: the kcat/Km in assay [1] was 1.03e+07 M⁻¹ s⁻¹; in assay [2], 3.7e+06 M⁻¹ s⁻¹; in assay [3] it was 1.91e+07 M⁻¹ s⁻¹; in assay [4], 1.24e+08 M⁻¹ s⁻¹; in assay [5], 5.17e+08 M⁻¹ s⁻¹.

As to `O=C(Cc1ccccc1)N[C@@H]1C(=O)N2C(C(=O)O)=C(COc3ccc4ccc(=O)oc4c3)C[S+]([O-])[C@H]12` (stereo partly specified), the kcat/Km in assay [1] came out at 3.5e+06 M⁻¹ s⁻¹; in assay [2] it was 700000 M⁻¹ s⁻¹; in assay [3], 2e+07 M⁻¹ s⁻¹; in assay [4], 3.2e+07 M⁻¹ s⁻¹; in assay [5] it was 8.07e+08 M⁻¹ s⁻¹.

Consider `O=C(Cc1ccccc1)N[C@@H]1C(=O)N2C(C(=O)O)=C(COc3ccc4ccc(=O)oc4c3)CS[C@H]12`, for which the kcat/Km in assay [4] was determined as 5.8e+06 M⁻¹ s⁻¹.

For the compound `O=C(Cc1cccs1)N[C@@H]1C(=O)N2C(C(=O)O)=C(CSc3ccc([N+](=O)[O-])c(C(=O)O)c3)CS[C@H]12`, the kcat/Km in assay [1] worked out at 200000 M⁻¹ s⁻¹; in assay [2], 60000 M⁻¹ s⁻¹; in assay [3] it was 1.8e+06 M⁻¹ s⁻¹; in assay [4] it was 2.7e+06 M⁻¹ s⁻¹; in assay [5], 2e+06 M⁻¹ s⁻¹.
